Laboratory results published in patent publication US20220370429A1, “AROMATIC HETEROCYCLIC COMPOUND HAVING TRICYCLIC STRUCTURE, AND PREPARATION METHOD THEREFOR AND APPLICATION THEREOF” (SHANGHAI LONGWOOD BIOPHARMACEUTICALS CO., LTD., priority 2019, published 2022).

By UniProt entry, the sequences of proteins in these tests, tags left out. Residues count along the entry.
UniProt Q9NZQ7, 19-238 limits assumed: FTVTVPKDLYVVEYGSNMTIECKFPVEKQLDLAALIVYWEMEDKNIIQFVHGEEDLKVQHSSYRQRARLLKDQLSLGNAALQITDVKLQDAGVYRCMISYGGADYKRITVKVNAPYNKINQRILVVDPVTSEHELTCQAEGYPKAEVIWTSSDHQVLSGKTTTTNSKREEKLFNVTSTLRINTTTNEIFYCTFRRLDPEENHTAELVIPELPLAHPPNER

biological target: PD-1/PD-L1 (Homo sapiens, UniProt Q9NZQ7); experiment: PD-1/PD-L1 Homogeneous Time-Resolved Fluorescence (HTRF) Binding Assay; settings: read-out: PD-1/PD-L1 HTRF IC50, 25° C., PBS pH 7.4, ~3 nM PD1, 10 nM PD-L1
Description: Example A: PD-1/PD-L1 Homogeneous Time-Resolved Fluorescence (HTRF) Binding Assay
Assays were performed in standard black 384-well polystyrene plates and a final volume was 20 μL. The inhibitor was first serially diluted with DMSO and added to the wells of the plate, followed by the addition of other reaction components. The final concentration of DMSO in the assay was 1%. Assays were performed at 25° C. in PBS buffer (pH 7.4) containing 0.05% Tween-20 and 0.1% BSA. Recombinant human PD-L1 protein (19-238) with a His-tagged at the C-terminus was purchased from AcroBiosystems (PD1-H5229). Recombinant human PD-1 protein (25-167) with an Fc tag at the C-terminus was also purchased from AcroBiosystems (PD1-H5257). The PD-L1 and PD-1 proteins were diluted in assay buffer and then […] of the solution was extracted and added to the wells of the plate. Plates were centrifuged and proteins and inhibitors were preincubated for 40 minutes. After incubation, 0.1 μl of HTRF detection buffer containing europium […] labeled anti-human IgG (PerkinElmer-AD0212), Fc-specific and anti-His SureLight®-Allophycocyanin (APC, PerkinElmer-AD0059H) conjugated antibodies was added. After centrifugation, the plates were incubated at 25° C. for 60 minutes. Data was read in a PHERAstar FS plate reader (665 nm/620 nm ratio). Final concentrations in the assay were ˜3 nM PD1, 10 nM PD-L1, 1 nM europium anti-human IgG, and 20 nM anti-His-allophycocyanin. Activity data were fitted using GraphPad Prism 5_0 software to derive IC50 values for inhibitors.

| SMILES | IC50 |
| --- | --- |
| COc1nc(O[C@H]2CCc3c(-c4cccc(-c5cc6cc7c(c(C#N)c6o5)CC[C@H]7N5CC[C@@H](C(=O)NS(=O)(=O)C6CC6)C5)c4Cl)cccc32)c(Cl)cc1CN1CC2(CCC(=O)N2)C1 | < 10 nM |
| COc1nc(O[C@H]2CCc3c(-c4cccc(-c5nc6cc7c(c(C#N)c6o5)CC[C@H]7N5CC[C@@H](C(=O)NS(C)(=O)=O)C5)c4Cl)cccc32)c(Cl)cc1CN1CC[C@@H](O)C1 | < 10 nM |
| COc1nc(O[C@H]2CCc3c(-c4cccc(-c5nc6cc7c(c(C#N)c6o5)CC[C@H]7N5CC[C@@H](C(=O)O)C5)c4C)cccc32)c(C(F)F)cc1CN1CC[C@@H](O)C1 | < 10 nM |
